The record followed here is US20240400635A1.

The chains behind the UniProt entries cited, without tags or fusion partners. Residues count along the entry.
UniProt P43220, 24-463: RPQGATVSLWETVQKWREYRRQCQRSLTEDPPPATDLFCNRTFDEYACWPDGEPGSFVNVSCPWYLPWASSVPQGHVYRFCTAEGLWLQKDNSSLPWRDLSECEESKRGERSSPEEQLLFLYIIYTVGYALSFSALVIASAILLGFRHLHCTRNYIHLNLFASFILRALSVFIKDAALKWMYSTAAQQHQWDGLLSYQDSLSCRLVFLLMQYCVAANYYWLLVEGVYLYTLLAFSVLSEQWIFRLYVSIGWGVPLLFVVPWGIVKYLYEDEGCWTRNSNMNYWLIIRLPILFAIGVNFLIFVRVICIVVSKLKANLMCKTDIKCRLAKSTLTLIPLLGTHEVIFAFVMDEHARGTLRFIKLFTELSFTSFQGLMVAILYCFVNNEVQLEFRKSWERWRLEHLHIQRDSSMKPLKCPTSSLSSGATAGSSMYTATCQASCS

The target of the assay is human GLP-1 receptor (human) (UniProt P43220). Briefly: cell-based or functional assay.

The substance “N-epsilon26-[2-(2-[2-(2-[2-(2-[4-(17-Carboxyheptadecanoylamino)-4(S)-carboxybutyrylamino]ethoxy)ethoxy]acetylamino)ethoxy]ethoxy)acetyl][Aib8,Arg34]GLP-1-(7-37)peptide” came in with a GLP-1 receptor potency [EC50] pM 0% HSA of 5.6 pM and a GLP-1 receptor potency [EC50] pM 1% HSA of 170 pM.
